# Only a part is listed here, and it is no random draw. Calls of active or inactive are those of the source.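 Rule for the calls: active = inhibition above a set limit, 3 SD over mean compound inhibition (cut at about 8.4% in these data); inactive = the rest.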
# Assay: inhibitors of the yeast RAM network, primary screen, dse1pr::URA3 reporter, 5-FOA selection (AID 868);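 note: 0% = DMSO-only wells with no growth and 100% = 10 µM 1-NA-PP1 full growth; inhibition rescues growth on 5-FOA so higher OD means more RAM inhibition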
# Settings: S. cerevisiae dse1pr::URA3 reporter, 5-FOA growth OD615, 2 d; at 50 µM; hits give high values; analog-sensitive cbk1-as2 kinase mutant strain
row,SMILES,inhibition
1,Fc1ccccc1NC1CCN(Cc2ccccc2)CC1,inactive: -0.13%
2,CN(C)c1ccc(C(=O)NCC2(N3CCCCC3)CCCCC2)cc1,inactive: 0.62%
3,CCN1CCC(Nc2cccc(F)c2)CC1,inactive: 0.4%
4,CC(C)(C)OC(=O)N1CCC(Nc2ccccc2)CC1,inactive: 1.97%
5,CCOc1ncccc1C(=O)NCC1(N2CCOCC2)CCCCC1,inactive: 0.11%
6,CCC(CO)(C(=O)OC1CN2CCC1CC2)c1ccccc1 (stereo not given),inactive: -0.4%
7,COc1cc(OC)cc(C(=O)NCC2(N3CCOCC3)CCCCC2)c1,inactive: 0.63%
8,COc1ccc(C(=O)NCC2(N3CCOCC3)CCCCC2)cc1OC,inactive: 1.32%
9,O=C(OC1CN2CCC1CC2)C1c2ccccc2C=Cc2ccccc21 (stereo not given),inactive: 1.17%
10,N/C(=N\O)c1c(N)no[n+]1[O-],inactive: -0.27%
11,N#Cc1ccc(C(=O)NCC2(N3CCCCC3)CCCCC2)cc1,inactive: 0.93%
12,c1ccc(CN2CCC(Nc3ccccc3)CC2)cc1,inactive: 1.48%
13,O=C(NCC1(N2CCCCC2)CCCCC1)c1cccc([N+](=O)[O-])c1,inactive: -0.13%
14,N#CC1(Nc2ccccc2)CCN(CCc2ccccc2)CC1,inactive: -0.4%
15,CN1CCN(CCOC(=O)C(O)(c2ccccc2)c2ccccc2)CC1,inactive: 1.17%
16,COc1ccc(NC2CCN(C(=O)OC(C)(C)C)CC2)cc1,inactive: -1.23%
17,O=C(NCC1(N2CCOCC2)CCCCC1)c1cc(=O)[nH]c2ccccc12,inactive: -1.25%
18,COc1ccc(CN(CCCl)CCCl)cc1Cl,inactive: -0.6%
19,CN(C)c1cccc(C(=O)NCC2(N3CCCCC3)CCCCC2)c1,inactive: 0%
20,CC(C)c1ccc(NC2CCN(C(=O)OC(C)(C)C)CC2)cc1,inactive: 0.69%
21,COc1ccc(C(=O)NCC2(N3CCCCC3)CCCCC2)c(OC)c1OC,inactive: 0.76%
22,CCOC(=O)N1CCC(Nc2ccc(OC)cc2)CC1,inactive: 3.65%
23,O=C(OC1CN2CCC1CC2)C1c2ccccc2Oc2ccccc21 (stereo not given),inactive: 0.67%
24,O=C(NCC1(N2CCOCC2)CCCCC1)c1cc2ccccc2o1,inactive: -1%
25,COc1ccc(NC2CCN(CCc3ccccc3)CC2)c(OC)c1,inactive: 1.72%

# Reference: PubChem BioAssay AID868 (SRMLSC, 2007)
